According to patent US20060094068A1, “Predictive markers in cancer therapy” (priority 2002, published 2006):

How the values were obtained:
[1] = tested on: Erk1/2; test: p-Erk1/2 in Hb4a cells (Western blot); details: 72 h, GW572016 5 μM, Herceptin 10 μg/ml
[2] = tested on: Erk1/2; test: Erk1/2 activation in BT474 cells (Western blot); details: 72 h, GW572016 500 nM or 1 μM, Herceptin 10 μg/ml
[3] = tested on: Erk1/2; test: Erk1/2 activation in HN5 cells (Western blot); details: 72 h, GW572016 500 nM or 1 μM, Herceptin 10 μg/ml

**Q.** What does the source list for “Herceptin™: humanized anti-erbB2 monoclonal antibody [reference compound]”?
**A.** Baseline p-Erk [1]: relatively little change; p-Erk1/2 levels compared with untreated controls [2]: very little effect; p-Erk1/2 levels compared with untreated controls [3]: very little effect
